Earlier results in US20040266795A1, “Process for the preparation of famciclovir” (priority 2003, published 2004).

Details: cited from earlier work

2-[2-(2-amino-9H-purin-9-yl)ethyl]-1,3-propane diacetate [famciclovir]
solubility in water (anhydrous form, 25° C.): > 25 % w/v
solubility in isopropanol (isopropanol): sparingly soluble
solubility in methanol (methanol): freely soluble
